The series is described as follows: Sumatriptan pharmacokinetics in female Sprague Dawley rats. The conditions noted are these: rat, in vivo, 0.358 mg.

Consider `CNS(=O)(=O)Cc1ccc2[nH]cc(CCN(C)C)c2c1` [Sumatriptan, sumatriptan], for which the time to peak (Tmax) (iv) was 2 min. Further, for the setting “sc”, the time to peak (Tmax) is 5 min and the half-life is 36.6 min.

Values taken from patent US8785396B2, “Method and composition for treating migraines” (Mannkind Corporation, priority 2007, dated 2014).
